Results published in patent EP4837574A1, “USE OF DNJ OR DERIVATIVE THEREOF IN PREPARING ANTI-SENESCENCE DRUG” (dated 2026).

Columns and labels:
[1] = tested on: human umbilical vein endothelial cells (Huvec cells); experiment: SA-β-Gal staining, H2O2-induced senescence, pre-administration (Example 1); details: 30 µM, pre-administration 24 hours, then 200 µM H2O2 24 hours, FIG. 9; for protective effects on senescence compared with NMN: NMN 30 µM as positive control; for increase in the number of senescent cells (SA-β-Gal staining-positive cells): compared with the H2O2 group
Experimental: (§1) Culture conditions for human umbilical vein endothelial cells (Huvec cells) are as follows: The Huvec cells were cultured in an ECM culture medium (SclenCell) and passaged and seeded when cultured to a density of 70% to 80% in a culture dish. The cells were washed 1 time with PBS, 0.25% trypsin (Gibco) was added for digestion for 2-3 minutes, and then an ECM culture medium was added to terminate the digestion. The cells were pipetted to be detached, collected into a 15 mL centrifuge tube, and centrifuged at 1,000 rpm for 5 minutes. The supernatant was discarded, a new ECM culture medium was added, and the cells were pipetted uniformly, seeded into a 12-well or 24-well plate (at a density of 70% to 80%), and cultured in a 5% CO2 incubator at 37°C. After cell adherence, the next operation was performed.
Experimental operation and grouping are as follows: Experimental grouping: A control group (Control), a modeling group (H2O2), a DNJ drug group (H2O2 + DNJ, H2O2 + DNJ-1, H2O2 + DNJ-3a, H2O2 + DNJ-3b, H2O2 + DNJ-5a), and a positive control drug group (H2O2 + NMN) were used.
(§2) Working concentrations of each drug and modeling agent: The concentrations of DNJ, DNJ-1, DNJ-3a, DNJ-3b, DNJ-5a, and NMN were all 30 µM; and the concentration of the modeling agent, H2O2, was 200 µM.
Experimental operation: After the supernatant was discarded, the cells were washed 3 times with PBS, drug solutions formulated in advance with a culture medium were added, and the blank group and the modeling group were replaced with a blank culture medium without drugs. After culturing for 24 hours, the supernatant was discarded, the cells were washed 3 times with PBS, a blank culture medium was added in the blank group, and a culture medium containing 200 µM H2O2 was added in the modeling group and the administration group. After treatment for 24 hours, the cells were subjected to SA-β-Gal staining operation using a cellular senescence β-galactosidase staining kit (Beyotime, C0602).
(§3) The workflow for SA-β-Gal staining of the cells is as follows: For the cells cultured in a 6-well plate, a cell culture solution was sucked away, the cells were washed 1 time with PBS, and 1 mL of an SA-β-Gal staining fixative was added for fixation at room temperature for 15 minutes. For other types of culture plates, the dosages of the fixative and subsequent solutions were used in operation with reference to this ratio. The cell fixative was sucked away, and the cells were washed 3 times with PBS, for 3 minutes each time. PBS was sucked away, and 1 mL of a staining working solution was added to each well. A method for formulating the staining working solution is as follows: A β-galactosidase staining solution A (10 µL), a β-galactosidase staining solution B (10 µL), a β-galactosidase staining solution C (930 µL), and an X-Gal solution (50 µL) were used. The cells were incubated overnight at 37°C, and the 6-well plate was sealed with a parafilm or a plastic wrap to prevent evaporation. Photographing was performed for record using a 20× objective under a microfluidic live cell real-time analysis system (Thermo), cell counting was performed using ImageJ software (National Institutes of Health, v 1.8.0), and ANOVA data analysis of multiple groups (mean ± SD) was performed using Graphpad Prism software (GraphPad Software, v 9.0.0).
Compared with normal cells, senescent cells have the characteristic of high expression of SA-β-Gal. In the cellular senescence β-galactosidase staining kit using X-Gal as a substrate, a deep blue product is generated under the catalysis of senescence-specific β-galactosidase, thereby determining whether the cells are senescent.

[2] = tested on: human umbilical vein endothelial cells (Huvec cells); experiment: SA-β-Gal staining, H2O2-induced senescence, post-modeling administration (Example 3); details: 30 µM, added after stimulation with H2O2 for 24 hours; FIG. 11
Experimental: as §1, §2, §3
(§4) A basic method refers to Example 1, with differences in the administration method as follows: after inducing by H2O2 and constructing a human umbilical vein endothelial cell senescence model, treatment with DNJ or its derivatives was performed separately, and the anti-aging activity of drugs was detected.

[3] = tested on: human umbilical vein endothelial cells (Huvec cells); experiment: SA-β-Gal staining, H2O2-induced senescence, simultaneous administration (Example 2); details: 30 µM, simultaneous treatment with 200 µM H2O2 for 24 hours; FIG. 10
Experimental: as §1, §2, §3
as §4, with “while” for “after”

[4] = tested on: human iPSC-derived mesenchymal stem cells (iPSC-MSC); experiment: SA-β-Gal staining, H2O2-induced senescence, pre-administration (Example 7); details: pre-administration 24 hours; 40 µM H2O2 2 hours, then new medium 24 hours; FIG. 15
Experimental: as §3
Culture conditions for human iPSC-derived mesenchymal stem cells (iPSC-MSC) are as follows: The cells were cultured in a MesenCult-ACF Plus Medium (STEMCELL, Cat#05446) and passaged and seeded when cultured to a density of 70% to 80% in a culture dish. After the cells were washed 1 time with DPBS (Gibco), an ACF Enzymatic Dissociation Solution (STEMCELL, Cat#05426) was added for digestion for 2-3 minutes, and then an ACF Enzyme Inhibition Solution (STEMCELL, Cat#05426) was added to terminate the digestion. The cells were pipetted to be detached, collected into a 15 mL centrifuge tube, and centrifuged at 300 G for 8 minutes. The supernatant was discarded, a new MesenCult-ACF Plus Medium was added, and the cells were pipetted uniformly, seeded into a 12-well or 24-well plate (at a density of 70% to 80%), and cultured in a 5% CO2 incubator at 37°C. After cell adherence, the next operation was performed.
The anti-aging activity of drugs was detected in iPSC-MSC. In iPSC-MSC, stimulation was performed with 40 µM H2O2 for 2 hours, followed by replacement with a new culture medium for continued culture for 24 hours to construct a cell senescence model. Compared with a control group, a significant increase in the number of SA-β-Gal staining-positive cells in an H2O2 group confirms successful establishment of an iPSC-MSC senescence model. The pharmacological activity of DNJ or its derivatives was detected in the method of pre-administration treatment for 24 hours.

[5] = tested on: rat cardiomyocytes (H9c2 cells); experiment: SA-β-Gal staining, H2O2-induced senescence, pre-administration (Example 6); details: pre-administration 24 hours, then 400 µM H2O2 48 hours; FIG. 14
Experimental: as §3
Culture conditions for rat cardiomyocytes (H9c2 cells) are as follows: The cells were cultured in a high-glucose DMEM culture medium containing 10% FBS and passaged and seeded when cultured to a density of 70% to 80% in a culture dish. The cells were washed 1 time with PBS, 0.25% trypsin was added for digestion for 2-3 minutes, and a high-glucose DMEM culture medium containing 10% FBS was added to terminate the digestion. The cells were pipetted to be detached, collected into a 15 mL centrifuge tube, and centrifuged at 1,000 rpm for 5 minutes. The supernatant was discarded, a new ECM culture medium was added, and the cells were pipetted uniformly, seeded into a 12-well or 24-well plate (at a density of 70% to 80%), and cultured in a 5% CO2 incubator at 37°C. After cell adherence, the next operation was performed.
The anti-aging activity of drugs was detected in the H9c2 cells. In the H9c2 cells, stimulation was performed with 400 µM H2O2 for 48 hours for modeling. […] The pharmacological activity of DNJ or its derivatives DNJ-1, DNJ-3a, DNJ-3b, and DNJ-5a was detected in the method of pre-administration treatment for 24 hours.

[6] = tested on: human umbilical vein endothelial cells (Huvec cells); experiment: SA-β-Gal staining, D-galactose-induced senescence, pre-administration (Example 4); details: 30 µM, pre-administration 24 hours, then 40 g/L D-gal 24 hours; FIG. 12
Experimental: as §1, §2, §3
The anti-aging activity of drugs was detected in a stress-induced senescence model of human umbilical vein endothelial cells induced by D-galactose. A basic method refers to Example 1, with differences in the modeling method as follows: a cell senescence model was constructed by stimulation with 40 g/L D-gal for 24 hours.

SMILES: OC[C@@H]1[C@@H](O)[C@H](O)[C@@H](O)CN1CCc1ccccc1
- protective effects on senescence compared with NMN [1]: significantly better than that of NMN
- increase in the number of senescent cells (SA-β-Gal staining-positive cells) [1]: significantly inhibited
- expression of SA-β-Gal and cell senescence [2]: significantly reduce
- production of senescent cells induced by H2O2 (number of SA-β-Gal staining-positive cells) [3]: significantly reduce
- number of SA-β-Gal staining-positive iPSC-MSC cells [4]: reduce
- number of SA-β-Gal staining-positive H9c2 cells [5]: reduce
- number of SA-β-Gal staining-positive cells [6]: significantly reduced

SMILES: O=C(CCCC[C@@H]1CCSS1)N1C[C@H](O)[C@@H](O)[C@H](O)[C@H]1CO
- protective effects on senescence compared with NMN [1]: significantly better than that of NMN
- increase in the number of senescent cells (SA-β-Gal staining-positive cells) [1]: significantly inhibited
- expression of SA-β-Gal and cell senescence [2]: significantly reduce
- production of senescent cells induced by H2O2 (number of SA-β-Gal staining-positive cells) [3]: significantly reduce
- number of SA-β-Gal staining-positive iPSC-MSC cells [4]: reduce
- number of SA-β-Gal staining-positive H9c2 cells [5]: reduce
- number of SA-β-Gal staining-positive cells [6]: significantly reduced

SMILES: OC[C@@H]1[C@@H](O)[C@H](O)[C@@H](O)CN1CCc1ccc(F)cc1
- increase in the number of senescent cells (SA-β-Gal staining-positive cells) [1]: significantly inhibited
- expression of SA-β-Gal and cell senescence [2]: significantly reduce
- production of senescent cells induced by H2O2 (number of SA-β-Gal staining-positive cells) [3]: significantly reduce
- number of SA-β-Gal staining-positive iPSC-MSC cells [4]: reduce
- number of SA-β-Gal staining-positive H9c2 cells [5]: reduce
- number of SA-β-Gal staining-positive cells [6]: significantly reduced

SMILES: CC(C)(C)C(=O)OC[C@H]1NC[C@H](O)[C@@H](O)[C@@H]1O
- protective effects on senescence compared with NMN [1]: significantly better than that of NMN
- increase in the number of senescent cells (SA-β-Gal staining-positive cells) [1]: significantly inhibited
- expression of SA-β-Gal and cell senescence [2]: significantly reduce
- production of senescent cells induced by H2O2 (number of SA-β-Gal staining-positive cells) [3]: significantly reduce
- number of SA-β-Gal staining-positive iPSC-MSC cells [4]: reduce
- number of SA-β-Gal staining-positive H9c2 cells [5]: reduce
- number of SA-β-Gal staining-positive cells [6]: significantly reduced
